Data published in US11833120B2, “Binding protein drug conjugates comprising anthracycline derivatives” (priority 2014, dated 2023).

Key:
[1] = system: SKBR3 cells, a human breast cancer cell line overexpressing HER-2; assay: In vitro cytotoxicity assay (CellTiter-Glo) on SKBR3; type: cell-based; conditions: HER-2-overexpressing SKBR3 cells, 4 days with ADC
Experimental: (§1) Cytotoxicity of Brentuximab-PNU-EDA-Gly5 was investigated using Karpas-299, a non-Hodgkin's lymphoma cell line expressing high levels of CD30, and L428, a Hodgkin's lymphoma cell line expressing low to moderate levels of CD30 (FIGS. 4A and 4B). […] For this, cells were plated on 96-well plates in 100 μl RPMI/10% FCS at a density of 10^4 cells per well and grown at 37° C. in a humidified incubator at 5% CO2 atmosphere. After one day incubation, 25 μl medium was carefully removed from each well and replaced by 25 μl of 3.5-fold serial dilutions of each ADC in growth medium, resulting in final ADC concentrations ranging from 20 μg/ml to 0.25 ng/ml. Each dilution was done in duplicate. After 4 additional days, plates were removed from the incubator and equilibrated to room temperature. After approximately 30 minutes, 100 μl CellTiter-Glo® Luminescent Solution (Promega, Cat. No G7570) was added to each well and, after shaking the plates at 450 rpm for 5 min followed by a 10 min incubation without shaking, luminescence was measured on a Tecan Infinity F200 with an integration time of 1 second per well.
For this, cells were plated on 96 well plates in 100 μl DMEM/10% FCS at a density of 10^4 cells per well and assays were performed exactly as described above. […]

[2] = system: Karpas-299, a non-Hodgkin's lymphoma cell line expressing high levels of CD30; assay: In vitro cytotoxicity assay (CellTiter-Glo) on Karpas-299; type: cell-based, human; conditions: Karpas-299 cells, HER-2 negative, up to 20 μg/ml
[3] = system: L428, a Hodgkin's lymphoma cell line expressing low to moderate levels of CD30; assay: In vitro cytotoxicity assay (CellTiter-Glo) on L428; type: cell-based, human; conditions: CD30 LO L428 cells, 4 days, up to 20 μg/ml
Experimental: as §1, with “well. […]” for “well.”

[4] = system: HER-2-negative EMT6 cells; assay: In vivo efficacy control, orthotopic HER-2-negative EMT6 tumors; parameters: species or system Balb/c mice; conditions: 1 mg/kg i.v. on days 13 and 20, mice bearing HER-2-negative tumors
Experimental: For this, 10^6 EMT6 mouse breast cancer cells expressing human HER-2 (Example 6), previously determined to be suitable for in vivo growth, were implanted into the right mammary fat pads of female Balb/c mice. In addition, control animals were implanted with HER-2-negative EMT6 cells. In the following, primary tumor volumes were measured by calipering. After 13 days, when a mean tumor volume of 100-150 mm^3 was reached, tumor-bearing animals were randomized into groups of 6 animals each according to tumor sizes. […] Tumor sizes were monitored by calipering and animals whose tumor volume reached 1000-1500 mm^3 were terminated (FIGS. 10A-10D).
FIGS. 10A-D: In vivo evaluation of HER-2-specific ADCs in an immunocompetent orthotopic mouse model of HER2-positive breast cancer. EMT6 mouse breast cancer cells expressing human HER-2 (FIGS. 10A, 10C, 10D) or irrelevant antigen ROR-1 were grown in the mammary fat pads of Balb/c mice. […] Tumor growth was monitored until animals had to be sacrificed due to ethical reasons.

Substance	EC50 of cell killing [1]	specific cell killing (in words) [2]	cell killing (in words) [3]	effect on tumor growth (in words) [4]
Kadcyla: commercially available HER-2-specific Trastuzumab-DM1 conjugate, maleimide linker containing	0.0237 µg/mL	no specific cell killing and was ineffective on either cell line	no specific cell killing and was ineffective on either cell line	–
Trastuzumab-PNU-EDA-Gly5	0.0048 µg/mL	–	–	did not lead to tumor regression
